Protein sequences, listed by entry. Tags and fused reporters are not part of them. Residues count along the entry.
UniProt P28571, 1-651 isoform 2: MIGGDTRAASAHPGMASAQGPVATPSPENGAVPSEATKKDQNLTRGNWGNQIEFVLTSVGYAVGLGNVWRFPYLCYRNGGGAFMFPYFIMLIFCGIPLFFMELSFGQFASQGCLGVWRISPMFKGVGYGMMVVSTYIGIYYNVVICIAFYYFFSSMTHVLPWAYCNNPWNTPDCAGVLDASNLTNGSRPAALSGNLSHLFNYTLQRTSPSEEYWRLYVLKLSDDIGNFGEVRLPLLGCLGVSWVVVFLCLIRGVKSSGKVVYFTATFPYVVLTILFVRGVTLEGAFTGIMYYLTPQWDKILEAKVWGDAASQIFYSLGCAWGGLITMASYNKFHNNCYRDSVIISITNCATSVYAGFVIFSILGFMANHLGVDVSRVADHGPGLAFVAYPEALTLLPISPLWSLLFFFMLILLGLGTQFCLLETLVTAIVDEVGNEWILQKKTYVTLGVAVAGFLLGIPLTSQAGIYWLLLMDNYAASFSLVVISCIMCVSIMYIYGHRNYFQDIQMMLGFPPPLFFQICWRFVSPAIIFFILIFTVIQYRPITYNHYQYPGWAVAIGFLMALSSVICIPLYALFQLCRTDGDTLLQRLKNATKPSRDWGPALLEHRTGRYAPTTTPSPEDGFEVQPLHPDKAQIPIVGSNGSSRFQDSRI

Some compounds may have been tested in ways that are not shown here.
Each molecule was assayed against mGlyT-1b (Mus musculus, UniProt P28571) (assay: Glycine Uptake Inhibition Assay (mGlyT-1b)). Settings: read-out: IC50 data; [3H]-glycine uptake, Flp-in-CHO cells transfected with mGlyT-1b cDNA, 20 min preincubation at 22° C.
Assay type: cell-based
`COc1cc(C(F)(F)F)cc(C(F)(F)F)c1C(=O)N[C@@H]1CCCC[C@@H]1N1CCCC1C` (stereo partly shown) showed an IC50 of 92.1 nM. With `CSc1cc(C(F)(F)F)cc(C(F)(F)F)c1C(=O)N[C@H]1CCCC[C@H]1N1CCCC1` the IC50 was 37.9 nM. `CCc1cc(C(F)(F)F)ccc1C(=O)N[C@@H]1CCCC[C@@H]1N1CCCC1` (racemic) was tested, and the IC50 was 97.9 nM. Work on `COc1cc(C(F)(F)F)cc(C(F)(F)F)c1C(=O)N[C@@H]1CCCC[C@@H]1NC1CCCC1` (racemic) yielded an IC50 of 89.4 nM. `COc1cc(C(F)(F)F)cc(SC)c1C(=O)N[C@@H]1CCCC[C@@H]1N1CCCC1` (racemic) showed an IC50 of 56.7 nM. With `COc1cc(C(F)(F)F)cc(SC)c1C(=O)N[C@@H]1CCCC[C@@H]1NC1CCC1` (racemic) the IC50 was 81.4 nM. In the case of `CSc1cc(C(F)(F)F)ccc1C(=O)N[C@@H]1CCCC[C@@H]1N1CCCC1` (racemic), the IC50 is reported as 99.8 nM. `O=C(N[C@H]1CCCC[C@H]1N1CCCC1)c1ccc(C(F)(F)F)cc1C1CC1` (racemic) gave an IC50 of 50.7 nM. Molecule `O=C(N[C@H]1CCCC[C@H]1NC1CCCC1)c1ccc(C(F)(F)F)cc1C1CC1` (racemic) has an IC50 of 57.3 nM. `COc1cc(C(F)(F)F)cc(SC)c1C(=O)N[C@@H]1CCCC[C@@H]1NC1CCCC1` (relative stereo) showed an IC50 of 24.8 nM. `O=C(N[C@H]1CCCC[C@H]1N1CCCC1)c1c(C2CC2)cc(C(F)(F)F)cc1C(F)(F)F` (relative stereo) was tested, and the IC50 was 47.9 nM. With `CSc1cc(C(F)(F)F)cc(C(F)(F)F)c1C(=O)N[C@@H]1CCCC[C@@H]1N1CCCC1` (single isomer, unassigned) the IC50 was 65 nM. Work on `CSc1cc(C(F)(F)F)ccc1C(=O)N[C@@H]1CCCC[C@@H]1N1CCCC1` (single isomer, unassigned) yielded an IC50 of 92 nM. With `O=C(N[C@@H]1CCCC[C@@H]1N1CCCC1)c1ccc(C(F)(F)F)cc1C1CC1` (single isomer, unassigned) [48] the IC50 was 86.9 nM. `O=C(NC1CCCCC1NC1CCCC1)c1ccc(C(F)(F)F)cc1C1CC1` (single isomer, unassigned) [54] showed an IC50 of 79.9 nM. Molecule `COc1cc(C(F)(F)F)cc(SC)c1C(=O)N[C@@H]1CCCC[C@@H]1N1CCCC1` (single isomer, unassigned) [Example 6] has an IC50 of 50.4 nM. `COc1cc(C(F)(F)F)cc(SC)c1C(=O)N[C@@H]1CCCC[C@@H]1N1CCCC1` (single isomer, unassigned) [Example 7] gave an IC50 of 49.5 nM. `O=C(N[C@@H]1CCCC[C@@H]1N1CCCC1)c1ccc(C(F)(F)F)cc1C1CC1` (single isomer, unassigned) [Example 47] gave an IC50 of 22.7 nM. `O=C(NC1CCCCC1NC1CCCC1)c1ccc(C(F)(F)F)cc1C1CC1` (single isomer, unassigned) [Example 53] was tested, and the IC50 was 36.7 nM.
